Results on one molecule are retold here after paper PMC7053292 (Research in Pharmaceutical Sciences, 2020).

Sequences of proteins named here, by UniProt entry; tags and fusion partners are left off. A change or cut given only in a name is not applied to a line headed by its entry.
UniProt P53341: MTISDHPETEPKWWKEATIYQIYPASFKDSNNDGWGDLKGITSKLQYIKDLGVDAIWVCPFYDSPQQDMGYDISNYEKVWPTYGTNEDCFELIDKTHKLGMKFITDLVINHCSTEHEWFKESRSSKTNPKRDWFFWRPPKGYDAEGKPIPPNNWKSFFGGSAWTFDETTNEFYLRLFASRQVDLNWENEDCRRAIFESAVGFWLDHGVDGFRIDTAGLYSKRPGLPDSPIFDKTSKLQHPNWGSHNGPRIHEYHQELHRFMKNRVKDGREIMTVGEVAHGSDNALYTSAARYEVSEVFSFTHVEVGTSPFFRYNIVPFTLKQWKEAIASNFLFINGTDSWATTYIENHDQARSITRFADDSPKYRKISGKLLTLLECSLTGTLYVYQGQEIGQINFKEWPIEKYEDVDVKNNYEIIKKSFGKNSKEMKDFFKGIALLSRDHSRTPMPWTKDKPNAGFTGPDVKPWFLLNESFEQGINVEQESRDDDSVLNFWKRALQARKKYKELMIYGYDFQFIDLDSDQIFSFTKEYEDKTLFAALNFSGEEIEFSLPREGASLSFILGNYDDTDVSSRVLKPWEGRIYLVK

The target in this experiment is α-glucosidase from Saccharomyces cerevisiae (Saccharomyces cerevisiae, UniProt P53341). The experiment can be described thus: α-Glucosidase assay. The conditions noted are these: read-out: Inhibition at 0.02 mM (%) α-Glucosidase. It is filed as biochemical.

As for `C[C@H]1O[C@H](O[C@H]2[C@H](O)[C@@H](O)[C@@H](O[C@H]3[C@H](O)[C@@H](O)C(O)O[C@@H]3CO)O[C@@H]2CO)[C@H](O)[C@@H](O)[C@@H]1N[C@H]1C=C(CO)[C@@H](O)[C@H](O)[C@H]1O` (stereo partly shown) [Acarbose, acarbose, reference compound], the inhibition at 20 µM was determined as 71.3 ± 1.1%.

Broadly, the inhibition is how much of the control response was suppressed.
